Here are results for nine molecules from PubChem BioAssay AID639 (Emory University Molecular Libraries Screening Center, 2007).

Amino acid sequences for entries named in this document (tags omitted).
UniProt P03372, whole entry: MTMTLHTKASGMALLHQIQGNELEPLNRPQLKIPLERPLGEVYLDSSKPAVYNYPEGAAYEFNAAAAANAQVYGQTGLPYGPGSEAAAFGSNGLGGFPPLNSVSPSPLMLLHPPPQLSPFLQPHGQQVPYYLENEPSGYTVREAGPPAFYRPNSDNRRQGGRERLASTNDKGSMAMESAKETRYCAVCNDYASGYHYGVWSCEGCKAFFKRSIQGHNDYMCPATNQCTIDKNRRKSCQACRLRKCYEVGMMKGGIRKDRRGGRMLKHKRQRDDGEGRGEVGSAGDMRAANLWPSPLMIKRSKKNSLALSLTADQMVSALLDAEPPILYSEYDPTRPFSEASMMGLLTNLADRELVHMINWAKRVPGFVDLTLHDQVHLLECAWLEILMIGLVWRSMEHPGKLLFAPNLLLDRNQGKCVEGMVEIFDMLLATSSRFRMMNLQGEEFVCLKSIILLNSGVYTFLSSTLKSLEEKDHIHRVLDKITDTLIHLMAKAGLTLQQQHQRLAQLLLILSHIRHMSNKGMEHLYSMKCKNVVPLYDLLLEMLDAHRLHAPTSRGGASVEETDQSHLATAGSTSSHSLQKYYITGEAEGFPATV

This is a selection; strong and weak results do not stand in their true shares. Calls of active or inactive are those of the source. Rule as the data show it: active = activity above about 200%; inactive = the rest.

The target of the assay is Estrogen receptor (Homo sapiens) (UniProt P03372). The assay is described as follows: ERα coactivator recruitment potentiators – biochemical, TR-FRET, ERα LBD, low estradiol, primary screen (AID 639).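 Also: binding measured in presence of low estradiol as agonist stimulus; 0% = peptide alone without receptor and 100% = receptor with peptide.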 Conditions: TR-FRET ERalpha-LBD/SRC-Cy5 coactivator binding, 2 h; at 25.6 µM; active compounds read high; 100 = basal binding, no effect. On the technique in general: Time-resolved FRET reads energy transfer from a long-lived donor to a nearby acceptor.
As for `O=C(NCC1(N2CCOCC2)CCCCC1)c1cc2ccccc2o1`, the coactivator binding (% of control) is inactive: 119%.
With `O=C(OC1CN2CCC1CC2)C1c2ccccc2Oc2ccccc21` (centres undefined), the coactivator binding (% of control) was inactive: 119%.
Turning to `N#CC1(Nc2ccccc2)CCN(CCc2ccccc2)CC1`, the coactivator binding (% of control) is inactive: 106%.
For the molecule `O=C(NCC1(N2CCOCC2)CCCCC1)c1cc(=O)[nH]c2ccccc12`, the coactivator binding (% of control) is inactive: 100%.
Take `N/C(=N\O)c1c(N)no[n+]1[O-]`: the coactivator binding (% of control) is inactive: 129%.
As to `c1ccc(CN2CCC(Nc3ccccc3)CC2)cc1`, the coactivator binding (% of control) is inactive: 108%.
On to `Fc1ccccc1NC1CCN(Cc2ccccc2)CC1`, for which the coactivator binding (% of control) was inactive: 137%.
As for `CCOc1ncccc1C(=O)NCC1(N2CCOCC2)CCCCC1`, the coactivator binding (% of control) is inactive: 107%.
Take `CCC(CO)(C(=O)OC1CN2CCC1CC2)c1ccccc1` (centres undefined): the coactivator binding (% of control) was inactive: 114%.
